Laboratory results reported in PubChem BioAssay AID1259334 (Broad Institute, 2017).

System: B cell line, TNFa signaling counterscreen reporter
Assay: TNFa signaling inhibitors in B cell line, dose response, counter-screen (AID 1259334);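 further: cells stimulated with TNFa after compound preincubation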

CCC1=CC2Cc3nc4ccc(Cl)cc4c(N)c3C(C1)C2 (stereo unspecified)
AC50: 7.34 µM
